In the assay the target is cAMP and cAMP-inhibited cGMP 3',5'-cyclic phosphodiesterase 10A (Homo sapiens, UniProt Q9Y233). Kind of assay: IMAP TR-FRET Assay: Enzyme Activity. An IMAP TR-FRET assay was used to analyze the enzyme activity (Molecular Devices Corp., Sunnyvale Calif.). 5 uL, of serial diluted PDE10A (BPS Bioscience, San Diego, Calif.) or tissue homogenate was incubated with equal volumes of diluted fluorescein labeled cAMP or cGMP for 60 min in 384-well polystyrene assay plates (Corning, Corning, N.Y.) at room temperature. After incubation, the reaction was stopped by adding 60 uL, of diluted binding reagents and was incubated for 3 hours to overnight at room temperature. The plates were read on an Envision (Perkin Elmer, Waltham, Mass.) for time resolved fluorescence resonance energy transfer. The data were analyzed with GraphPad Prism (La Jolla, Calif.).Enzyme Inhibition. To check the inhibition profile, 5 uL, of serial diluted compounds were incubated with 5 uL, of diluted PDE10 enzyme (BPS Bioscience, San Diego, Calif.) or tissue homogenate in a 384-well polystyrene assay plate (Corning, Corning, N.Y.).

The chains behind the UniProt entries cited, without tags or fusion partners. Where a name states a change or a piece, a line headed by the entry shows the natural chain unless it says otherwise.
UniProt Q9Y233: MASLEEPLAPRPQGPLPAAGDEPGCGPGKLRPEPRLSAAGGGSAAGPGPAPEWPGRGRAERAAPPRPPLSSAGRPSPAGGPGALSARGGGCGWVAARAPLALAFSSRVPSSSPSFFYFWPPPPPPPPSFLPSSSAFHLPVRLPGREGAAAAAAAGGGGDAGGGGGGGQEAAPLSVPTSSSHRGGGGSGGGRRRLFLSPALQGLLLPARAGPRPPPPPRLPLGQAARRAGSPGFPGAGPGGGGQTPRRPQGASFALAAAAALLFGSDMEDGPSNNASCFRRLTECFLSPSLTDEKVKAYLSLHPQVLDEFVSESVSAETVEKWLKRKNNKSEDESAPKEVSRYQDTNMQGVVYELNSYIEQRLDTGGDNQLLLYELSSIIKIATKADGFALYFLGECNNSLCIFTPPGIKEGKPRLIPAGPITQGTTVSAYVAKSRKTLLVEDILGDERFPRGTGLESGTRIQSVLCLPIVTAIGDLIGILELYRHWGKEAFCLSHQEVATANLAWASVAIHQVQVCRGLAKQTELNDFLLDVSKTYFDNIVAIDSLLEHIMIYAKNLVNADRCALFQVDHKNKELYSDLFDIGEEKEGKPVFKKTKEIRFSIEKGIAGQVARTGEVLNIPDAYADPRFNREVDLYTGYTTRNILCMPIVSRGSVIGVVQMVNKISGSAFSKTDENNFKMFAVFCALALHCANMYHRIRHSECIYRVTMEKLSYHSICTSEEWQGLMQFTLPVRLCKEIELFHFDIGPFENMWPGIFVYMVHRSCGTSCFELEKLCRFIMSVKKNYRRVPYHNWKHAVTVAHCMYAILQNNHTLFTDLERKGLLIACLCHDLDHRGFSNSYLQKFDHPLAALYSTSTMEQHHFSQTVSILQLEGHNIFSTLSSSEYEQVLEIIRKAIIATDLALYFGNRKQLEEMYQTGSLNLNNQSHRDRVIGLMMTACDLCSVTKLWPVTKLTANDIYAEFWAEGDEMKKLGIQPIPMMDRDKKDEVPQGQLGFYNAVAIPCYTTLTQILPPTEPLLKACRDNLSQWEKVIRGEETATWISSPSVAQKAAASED

Structures are written as SMILES.

Broadly, the IC50 is the concentration needed to halve the response being measured.

In turn, `CC(=O)c1ccc(-c2nccnc2O[C@H]2C[C@@H](Nc3nc4ccccc4s3)C2)cn1` came in with a half-inhibitory concentration (IC50) of 2.74 nM.
